From PMC2757418 come the findings set out here.

One experiment has as its target Aβ1–17 peptide (Anaspec). In words: ELISA. In general terms: In an ELISA, binding on a coated surface is turned into a signal by an enzyme label.
Another experiment deals with Aβ1–42 peptide (Anaspec). Put plainly: ELISA.

With “Recombinant Flag-netrin-1 (Apotech Corp, Axxora) (from UniProt O09118 25-604) (ligand)”, the Kd is 30 nM with Aβ1–17 peptide (Anaspec) and 22 nM in the experiment with Aβ1–42 peptide (Anaspec).

Usually Kd stands for the free concentration of one partner at which half of the binding sites on the other are occupied at equilibrium, for simple one-to-one binding. A lower Kd goes with higher affinity.
